# According to PubChem BioAssay AID463190 (Sanford-Burnham Center for Chemical Genomics, 2010):
# The entries are a selection whose mix differs from that of the whole data set. The source made the active and inactive calls.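 How the source made its calls: active means inhibition of at least 40%; inactive means the rest.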
# Assay: growth inhibitors of tim10-1 mutant yeast, primary screen, luminescence, uHTS (AID 463190);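 further: mutant grown at 25 °C; 0% = DMSO wells with yeast and 100% = wells holding no yeast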
# Settings: S. cerevisiae tim10-1 ts strain growth, BacTiter-Glo, 24 h; at 20 µM; stronger effect = higher value
row,Structure (SMILES),inhibition
1,CCC(=O)N(c1ccccc1)C1(COC)CCN(CCn2nnn(CC)c2=O)CC1,inactive: -0.119%
2,CCC(=O)N(c1ccccc1)C1(COC)CCN(CCc2cccs2)CC1,inactive: 23%
